Reference: US20260124309A1, “STAT6 DEGRADERS AND USES THEREOF” (Kymera Therapeutics, Inc., priority 2023, published 2026)

Columns and labels:
[1] = test system: IL-4 and IL-13 TARC; experiment: IL-4 and IL-13 TARC inhibition in human PBMC; format: cell-based; settings: versus dupilumab (literature data), FIG. 2 (A)
[2] = test system: IL-4 and IL-13 CD23; experiment: IL-4 and IL-13 CD23 inhibition in human PBMC; format: cell-based; settings: versus dupilumab (literature data), FIG. 2 (B)

CN(C)C(=O)c1cc2c(-c3ccc(N4CCN(CCCc5ccc6c(c5)n(C)c(=O)n6C5CCC(=O)NC5=O)CC4)cc3)cc(C3=CCCN(C(=O)CCn4ccnn4)C3)cc2[nH]1 (centres unmarked)
IL-4 and IL-13 TARC inhibition potency [1]: superior | IL-4 and IL-13 CD23 inhibition potency [2]: superior
